According to PubChem BioAssay (NCATS):
The entries are a selection whose mix differs from that of the whole data set. Results filed as inconclusive are left out. Activity calls are given as the source filed them. Unless noted, the call rests on the fitted dose curve; in most records, active means well fitted curve in the direction sought with a large enough effect; inconclusive means small, poorly fitted or top-dose-only effect, or another doubt; inactive means no such curve, though single readings can be large; an effect the other way counts as inactive or inconclusive.

Protein sequences, listed by entry. Tags and fused reporters are not part of them. Lines headed by an entry give the natural chain unless they say otherwise; changes in a name come on top.
UniProt P16066: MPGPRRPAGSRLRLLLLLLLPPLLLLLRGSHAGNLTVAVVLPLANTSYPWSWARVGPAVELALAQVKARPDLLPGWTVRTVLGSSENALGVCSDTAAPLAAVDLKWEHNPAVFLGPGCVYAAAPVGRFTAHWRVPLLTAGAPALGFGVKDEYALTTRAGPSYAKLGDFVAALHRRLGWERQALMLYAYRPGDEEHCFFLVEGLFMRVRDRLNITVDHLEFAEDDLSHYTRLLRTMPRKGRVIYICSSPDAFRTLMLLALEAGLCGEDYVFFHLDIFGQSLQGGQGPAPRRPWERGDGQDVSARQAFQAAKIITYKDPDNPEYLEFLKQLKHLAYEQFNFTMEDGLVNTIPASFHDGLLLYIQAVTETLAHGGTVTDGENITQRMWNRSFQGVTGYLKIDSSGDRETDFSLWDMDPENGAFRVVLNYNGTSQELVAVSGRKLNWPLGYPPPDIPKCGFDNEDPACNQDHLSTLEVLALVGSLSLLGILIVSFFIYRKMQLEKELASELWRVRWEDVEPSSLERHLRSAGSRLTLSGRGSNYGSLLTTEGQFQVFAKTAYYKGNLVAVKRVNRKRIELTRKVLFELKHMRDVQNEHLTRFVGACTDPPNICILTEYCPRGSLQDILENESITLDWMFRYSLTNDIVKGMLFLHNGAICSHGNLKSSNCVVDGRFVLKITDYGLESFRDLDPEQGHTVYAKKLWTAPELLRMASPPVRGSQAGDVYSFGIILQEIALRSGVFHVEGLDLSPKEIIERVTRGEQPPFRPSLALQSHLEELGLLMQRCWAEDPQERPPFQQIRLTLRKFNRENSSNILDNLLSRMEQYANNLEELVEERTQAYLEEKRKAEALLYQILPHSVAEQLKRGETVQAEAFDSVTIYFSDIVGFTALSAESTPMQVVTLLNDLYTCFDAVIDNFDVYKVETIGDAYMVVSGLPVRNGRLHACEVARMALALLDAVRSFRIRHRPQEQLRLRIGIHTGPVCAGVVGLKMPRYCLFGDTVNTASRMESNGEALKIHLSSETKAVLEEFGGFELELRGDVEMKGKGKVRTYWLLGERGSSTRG
UniProt P20594: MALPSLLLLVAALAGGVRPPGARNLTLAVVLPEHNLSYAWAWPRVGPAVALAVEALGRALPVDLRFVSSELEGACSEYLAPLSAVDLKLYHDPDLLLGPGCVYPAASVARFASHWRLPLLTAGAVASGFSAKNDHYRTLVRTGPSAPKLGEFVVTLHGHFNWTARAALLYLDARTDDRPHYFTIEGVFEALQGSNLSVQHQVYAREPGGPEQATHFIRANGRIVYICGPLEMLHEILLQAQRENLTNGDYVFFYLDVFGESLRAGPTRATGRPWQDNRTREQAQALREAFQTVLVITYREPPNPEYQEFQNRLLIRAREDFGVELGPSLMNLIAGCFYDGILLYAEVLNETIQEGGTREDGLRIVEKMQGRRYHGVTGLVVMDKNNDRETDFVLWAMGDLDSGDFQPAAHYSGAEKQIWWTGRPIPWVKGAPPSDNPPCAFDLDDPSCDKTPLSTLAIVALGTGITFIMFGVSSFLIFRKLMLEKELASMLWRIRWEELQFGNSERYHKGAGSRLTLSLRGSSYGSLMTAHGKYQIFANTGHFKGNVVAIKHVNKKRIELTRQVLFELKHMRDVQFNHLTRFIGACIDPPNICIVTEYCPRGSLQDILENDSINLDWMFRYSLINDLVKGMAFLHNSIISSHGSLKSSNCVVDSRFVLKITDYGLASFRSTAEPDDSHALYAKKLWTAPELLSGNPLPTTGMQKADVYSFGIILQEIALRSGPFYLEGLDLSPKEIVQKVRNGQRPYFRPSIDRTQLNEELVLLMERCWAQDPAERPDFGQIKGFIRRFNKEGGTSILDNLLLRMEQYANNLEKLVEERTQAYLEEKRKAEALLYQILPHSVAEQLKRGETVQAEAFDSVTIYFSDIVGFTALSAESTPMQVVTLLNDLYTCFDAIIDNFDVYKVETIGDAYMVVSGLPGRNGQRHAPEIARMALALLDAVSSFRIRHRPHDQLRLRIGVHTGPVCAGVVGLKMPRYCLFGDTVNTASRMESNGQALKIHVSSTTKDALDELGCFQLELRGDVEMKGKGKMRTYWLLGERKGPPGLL
UniProt P78324, whole entry, looked up: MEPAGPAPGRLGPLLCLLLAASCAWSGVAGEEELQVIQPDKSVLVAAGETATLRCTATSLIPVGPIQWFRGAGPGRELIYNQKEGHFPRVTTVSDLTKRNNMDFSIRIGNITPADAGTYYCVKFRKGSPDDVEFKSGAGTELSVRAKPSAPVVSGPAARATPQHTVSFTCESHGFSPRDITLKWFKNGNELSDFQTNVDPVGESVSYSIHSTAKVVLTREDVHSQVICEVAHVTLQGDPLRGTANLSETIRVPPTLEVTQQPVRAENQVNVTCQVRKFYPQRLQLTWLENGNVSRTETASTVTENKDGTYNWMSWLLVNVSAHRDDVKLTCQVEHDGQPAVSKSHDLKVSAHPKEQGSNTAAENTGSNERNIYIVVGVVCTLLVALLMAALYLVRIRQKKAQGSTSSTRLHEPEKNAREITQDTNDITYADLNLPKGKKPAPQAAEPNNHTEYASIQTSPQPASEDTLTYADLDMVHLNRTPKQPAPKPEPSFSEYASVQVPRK
UniProt Q08722, whole entry, looked up: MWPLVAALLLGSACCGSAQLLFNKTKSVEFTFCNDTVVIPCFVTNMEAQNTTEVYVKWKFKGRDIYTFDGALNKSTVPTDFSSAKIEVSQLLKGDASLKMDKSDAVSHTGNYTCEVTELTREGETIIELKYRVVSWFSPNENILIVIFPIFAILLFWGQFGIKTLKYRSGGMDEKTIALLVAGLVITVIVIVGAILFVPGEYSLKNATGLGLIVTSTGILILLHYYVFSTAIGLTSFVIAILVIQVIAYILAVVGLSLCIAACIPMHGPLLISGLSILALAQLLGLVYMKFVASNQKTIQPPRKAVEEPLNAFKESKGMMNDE
UniProt Q03431: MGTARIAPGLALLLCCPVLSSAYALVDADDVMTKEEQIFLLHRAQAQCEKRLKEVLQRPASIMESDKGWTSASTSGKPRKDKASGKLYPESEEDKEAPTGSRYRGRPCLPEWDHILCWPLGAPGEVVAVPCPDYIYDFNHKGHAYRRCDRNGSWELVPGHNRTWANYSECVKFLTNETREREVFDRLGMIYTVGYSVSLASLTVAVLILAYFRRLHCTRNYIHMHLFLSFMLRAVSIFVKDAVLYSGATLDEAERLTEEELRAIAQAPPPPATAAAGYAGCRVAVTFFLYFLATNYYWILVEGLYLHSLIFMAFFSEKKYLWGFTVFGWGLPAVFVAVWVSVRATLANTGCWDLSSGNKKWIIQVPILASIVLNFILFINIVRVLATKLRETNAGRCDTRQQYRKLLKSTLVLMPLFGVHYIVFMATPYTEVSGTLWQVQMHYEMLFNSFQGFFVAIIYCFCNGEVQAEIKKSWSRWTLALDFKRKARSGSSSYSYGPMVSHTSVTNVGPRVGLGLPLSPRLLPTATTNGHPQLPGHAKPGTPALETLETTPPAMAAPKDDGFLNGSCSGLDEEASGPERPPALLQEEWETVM
UniProt Q9BV86: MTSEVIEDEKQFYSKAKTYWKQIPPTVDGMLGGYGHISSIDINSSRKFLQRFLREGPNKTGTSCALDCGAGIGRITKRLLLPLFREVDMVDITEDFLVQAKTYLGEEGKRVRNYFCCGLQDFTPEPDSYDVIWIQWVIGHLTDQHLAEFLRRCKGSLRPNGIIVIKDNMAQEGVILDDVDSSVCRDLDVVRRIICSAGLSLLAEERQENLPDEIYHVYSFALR
UniProt Q9UGL1: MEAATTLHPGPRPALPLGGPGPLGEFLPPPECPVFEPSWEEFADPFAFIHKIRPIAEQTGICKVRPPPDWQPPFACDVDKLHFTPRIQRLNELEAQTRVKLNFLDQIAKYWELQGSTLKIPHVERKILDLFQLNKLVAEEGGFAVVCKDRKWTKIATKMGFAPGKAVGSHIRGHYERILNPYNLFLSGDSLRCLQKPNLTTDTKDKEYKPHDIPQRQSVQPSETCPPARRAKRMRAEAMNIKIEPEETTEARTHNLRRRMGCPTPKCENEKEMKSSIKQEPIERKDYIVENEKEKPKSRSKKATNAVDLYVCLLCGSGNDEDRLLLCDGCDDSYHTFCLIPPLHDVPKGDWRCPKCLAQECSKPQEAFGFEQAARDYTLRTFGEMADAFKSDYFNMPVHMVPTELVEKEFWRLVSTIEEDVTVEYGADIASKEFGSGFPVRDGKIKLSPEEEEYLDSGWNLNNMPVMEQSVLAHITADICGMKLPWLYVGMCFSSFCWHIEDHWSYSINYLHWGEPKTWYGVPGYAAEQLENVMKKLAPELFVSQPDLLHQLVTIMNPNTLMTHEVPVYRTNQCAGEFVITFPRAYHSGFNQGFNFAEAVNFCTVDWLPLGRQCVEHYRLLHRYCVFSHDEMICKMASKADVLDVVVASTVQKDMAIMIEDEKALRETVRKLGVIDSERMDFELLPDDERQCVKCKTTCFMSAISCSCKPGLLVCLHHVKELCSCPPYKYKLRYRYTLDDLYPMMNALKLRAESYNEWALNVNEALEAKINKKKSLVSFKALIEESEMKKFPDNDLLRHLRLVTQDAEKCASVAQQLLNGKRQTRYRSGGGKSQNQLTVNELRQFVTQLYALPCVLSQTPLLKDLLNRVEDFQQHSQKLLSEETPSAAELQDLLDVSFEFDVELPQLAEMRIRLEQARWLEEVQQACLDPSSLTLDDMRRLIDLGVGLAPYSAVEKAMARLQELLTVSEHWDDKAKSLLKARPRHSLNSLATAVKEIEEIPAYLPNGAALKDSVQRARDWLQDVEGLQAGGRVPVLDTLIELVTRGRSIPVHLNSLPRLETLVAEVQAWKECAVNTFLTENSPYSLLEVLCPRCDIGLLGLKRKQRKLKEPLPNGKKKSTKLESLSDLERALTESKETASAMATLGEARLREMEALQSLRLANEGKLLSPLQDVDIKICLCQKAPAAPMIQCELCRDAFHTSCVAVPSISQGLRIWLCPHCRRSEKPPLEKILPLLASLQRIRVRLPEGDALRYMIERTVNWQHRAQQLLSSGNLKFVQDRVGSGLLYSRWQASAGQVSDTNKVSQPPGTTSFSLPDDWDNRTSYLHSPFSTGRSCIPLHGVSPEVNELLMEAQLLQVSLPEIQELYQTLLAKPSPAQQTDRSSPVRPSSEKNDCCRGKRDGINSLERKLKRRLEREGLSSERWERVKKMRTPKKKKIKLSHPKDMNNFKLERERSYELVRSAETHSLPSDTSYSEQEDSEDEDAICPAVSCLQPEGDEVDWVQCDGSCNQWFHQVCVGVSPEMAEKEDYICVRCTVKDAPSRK
UniProt Q9GZX7: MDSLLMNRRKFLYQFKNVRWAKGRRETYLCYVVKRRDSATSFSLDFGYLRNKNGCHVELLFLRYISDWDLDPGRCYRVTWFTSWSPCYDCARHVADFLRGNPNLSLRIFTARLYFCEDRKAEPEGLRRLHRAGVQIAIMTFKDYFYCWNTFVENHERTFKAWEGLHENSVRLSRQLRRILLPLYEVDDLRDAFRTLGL
UniProt Q99828: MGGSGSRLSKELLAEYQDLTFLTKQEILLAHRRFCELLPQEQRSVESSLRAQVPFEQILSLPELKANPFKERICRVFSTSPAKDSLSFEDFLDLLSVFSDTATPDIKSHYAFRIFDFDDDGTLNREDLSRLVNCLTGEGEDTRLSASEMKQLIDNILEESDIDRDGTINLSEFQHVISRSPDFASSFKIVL
UniProt C7C422: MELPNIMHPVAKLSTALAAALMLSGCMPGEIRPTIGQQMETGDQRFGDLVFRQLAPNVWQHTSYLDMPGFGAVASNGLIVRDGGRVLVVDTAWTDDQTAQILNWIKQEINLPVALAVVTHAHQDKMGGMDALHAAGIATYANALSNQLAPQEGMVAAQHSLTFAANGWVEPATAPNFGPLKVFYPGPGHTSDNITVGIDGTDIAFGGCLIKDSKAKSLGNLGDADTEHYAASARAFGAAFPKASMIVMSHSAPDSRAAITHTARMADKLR

Assays:
[1] = Natriuretic polypeptide receptor (hNpr1) antagonism - Pilot counterscreen GloSensor control cell line (AID 1347045; calls by dose curve; further: on the % scale 0 is the no-effect control and ±100 the full control effect); details: GloSensor cAMP control cell line, luminescence counterscreen; at 38.3 µM (top of the series)
In short: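 HEK293 cGMP GloSensor cells preloaded 2 h with 2% GloSensor reagent, then compound 30 min before baseline luminescence read. Stimulated with 50 uM sodium nitroprusside, 20 min at room temperature, then read again; counterscreen for Npr1 antagonism.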

[2] = target: Atrial natriuretic peptide receptor 1 (Homo sapiens) (UniProt P16066); test: Natriuretic polypeptide receptor (hNpr1) antagonism - Pilot screen (AID 1347049; calls by dose curve;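 further: agonist-evoked cGMP luminescence read 20 min after hNppA addition; on the % scale 0 is the no-effect control and ±100 the full control effect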); details: hNpr1 cells, antagonist mode cGMP read-out; at 57.5 µM (top of the series)
In short: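 Readout is cGMP-driven firefly luciferase luminescence in HEK293 cells carrying hNpr1 and a PDE5-domain GloSensor, read before and 20 min after 0.1 nM hNppA stimulation. Cells had 2% substrate reagent for 2 h and test compound for 30 min.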

[3] = target: Atrial natriuretic peptide receptor 2 (Homo sapiens) (UniProt P20594); test: Natriuretic polypeptide receptor (hNpr2) antagonism - Pilot subtype selectivity assay (AID 1347050; calls by dose curve; further: on the % scale 0 is the no-effect control and ±100 the full control effect); details: NPR2-expressing cells, cGMP antagonist-mode read-out; at 38.3 µM (top of the series)
In short: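 Pilot selectivity screen against hNpr2: HEK293 cGMP-sensor cells are treated with LOPAC1280 compounds, then with hNppC peptide at 1 nM final. The cGMP-driven luminescence change over 20 min at room temperature is the read-out.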

[4] = target: T1, Tyrosine-protein phosphatase non-receptor type substrate 1 (Homo sapiens) + Leukocyte surface antigen CD47 (Homo sapiens) (UniProt P78324+Q08722); test: CD47-SIRPalpha protein protein interaction - LANCE assay qHTS validation (AID 1347057; active means well fitted curve in the direction sought with a large enough effect in the signal ratio, with a control signal flat, not every such curve was filed as active; the % refers to the signal ratio; further: 0% is about no effect); details: Recombinant CD47-His / biotin-SIRPalpha, TR-FRET ratio; at 38.3 µM (top of the series)
In short: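 First, His-tagged CD47 and Eu-labelled anti-His antibody met the compound for 30 min; next, site-specifically biotinylated SIRPalpha was added for 30 min; finally streptavidin-APC was added before reading the TR-FRET ratio.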

[5] = target: T1, Tyrosine-protein phosphatase non-receptor type substrate 1 (Homo sapiens) + Leukocyte surface antigen CD47 (Homo sapiens); test: CD47-SIRPalpha protein protein interaction - HTRF assay qHTS validation (AID 1347058; active means well fitted curve in the direction sought with a large enough effect in the signal ratio, not every such curve was filed as active; the % refers to the signal ratio;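 further: recombinant soluble extracellular CD47 with His tag and biotinylated SIRPalpha domains; 0% is about no effect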); details: TR-FRET HTRF CD47-His / biotin-SIRPalpha binding, ratio 665/615; at 38.3 µM (top of the series)
In short: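 TR-FRET read (Ch1/Ch2 ratio) of soluble extracellular CD47 and Avi-biotinylated SIRPalpha domains in PBS pH 7.4 with 0.05% IGEPAL; 7-point compound titration. Sequential 30 min room-temperature steps; non-biotinylated SIRPalpha as control inhibitor.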

[6] = target: T1, Tyrosine-protein phosphatase non-receptor type substrate 1 (Homo sapiens) + Leukocyte surface antigen CD47 (Homo sapiens); test: CD47-SIRPalpha protein protein interaction - Alpha assay qHTS validation (AID 1347059); details: AlphaScreen CD47-His/biotin-SIRPalpha binding, LOPAC; at 38.3 µM (top of the series);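 further: bead proximity luminescence from CD47 binding SIRPalpha after compound preincubation with SIRPalpha; on the % scale 0 is the no-effect control and ±100 the full control effect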
In short: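 Binding is measured by AlphaScreen proximity: Ni-NTA acceptor beads capture His-CD47, streptavidin donor beads capture biotin-SIRPalpha. Each of three additions (SIRPalpha with compound, CD47, beads) incubates 30 min at room temperature protected from light.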

[7] = target: Parathyroid hormone/parathyroid hormone-related peptide receptor (Homo sapiens) (UniProt Q03431); test: qHTS for PTHR1 Agonists: Optimization Screen against the NCGC LOPAC library (AID 1347079); details: HEK293 GP2 PTHR1 GloSensor cAMP luminescence, 1 h; at 57.1 µM (top of the series);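 further: GloSensor cAMP luminescence in HEK-293 GP2 cells expressing human PTHR1 with IBMX; 0% is about no effect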
In short: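 Agonist readout: GloSensor cAMP luminescence, read after 15 min at room temperature. HEK-293-derived GP2 line carries PTHR1; compounds tested as a titration for 1 hr at 37C in presence of IBMX. M-PTH (1-15) served as control.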

[8] = target: N-terminal Xaa-Pro-Lys N-methyltransferase 1 (Homo sapiens) (UniProt Q9BV86); test: qHTS Assay for Inhibitors of N-terminal methyltransferase 1 (NTMT1): LOPAC validation of the NTMT1 SAHH-coupled ThioGlo3 Assay (AID 1347143); details: recombinant NTMT1, SAHH-coupled ThioGlo3 fluorescence; at 114 µM (top of the series);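 further: SAH from peptide methylation measured as thiol fluorescence via SAHH coupling and ThioGlo3; on the % scale 0 is the no-effect control and ±100 the full control effect; nearly all actives have a fitted effect of over 70% in size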
In short: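 Inhibition of NTMT1 methylation of peptide SPKRIA is followed by converting SAH with SAHH and labelling the released thiol with ThioGlo3. Plates are read at 340/450nm before and 30 min after reagent addition, both at room temperature.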

[9] = target: Lysine-specific demethylase 5B (Homo sapiens) (UniProt Q9UGL1); test: Optimization screen for KDM5B Histone Demethylases FDH coupled qHTS against the LOPAC library (AID 1347166); details: KDM5B demethylation, FDH-coupled NADH fluorescence; at 57.5 µM (top of the series); further: 0% is about no effect
In short: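 KDM5BDeltaAP (200nM final) preincubated 10 min with compound, then 12.5uM H3K4Me3, 25uM a-ketoglutarate, ascorbate, Fe(II), NAD+ and FDH added; 50mM HEPES pH 7.5, 0.01% Tween-20. NADH fluorescence (340/450 nm) change over 30 min, room temperature.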

[10] = qHTS to identify inhibitors of the type 1 interferon - major histocompatibility complex class I in skeletal muscle: primary screen against the NCATS LOPAC collection (AID 1347405); details: iHSKM muscle cells, IFN-b-induced MHC-I HiBiT luminescence, 24 h; at 45.9 µM (top of the series)
In short: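 CRISPR-engineered immortalized human myoblasts (C25cl48) with HiBiT fused to endogenous HLA-B*08:01, stimulated with 4 ng/ml IFN-beta. LOPAC compounds tested as a 7-point 1:4.3 titration (top 46 uM final), 24 h at 37 C; lytic HiBiT luminescence read.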

[11] = qHTS for inhibitors of adenylyl cyclases using a fission yeast platform: a pilot screen against the NCATS LOPAC library (AID 1347410);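 further: plate controls were DMSO vehicle for no effect and DPI positive control for full effect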; details: S. pombe CHP2027, fbp1-GFP fluorescence, 18 h, yeast expressing mammalian AC9 and human GNAS; at 57.5 µM (top of the series)
In short: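 Fission yeast qHTS: CHP2027 cells (AC9-GNAS-PDE4D2, fbp1-GFP), 5x10^6 cells/mL working density, EMM + His/Lys/Ura; LOPAC at up to 57 µM final; 18 h dark, 30C; GFP by laser cytometry. DPI positive control, DMSO vehicle.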

[12] = Validation qHTS assay for inhibitors of Activation Induced Cytidine Deaminase (AID): UDG Counterscreen signal (AID 1347427); details: biochemical UDG counterscreen, fluorescence signal; at 115 µM (top of the series); further: 0% is about no effect
In short: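 Counterscreen read of UDG activity (2 U/mL, 4/3x) in the FRET deamination format with AID (1 uM, 4/3x), DJC20/DJC23 substrates (250 nM, 4x), 4 h at room temperature. NaOH stop, fluorescence at 560 ex/665 em.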

[13] = target: Single-stranded DNA cytosine deaminase (Homo sapiens) (UniProt Q9GZX7); test: Validation qHTS assay for inhibitors of Activation Induced Cytidine Deaminase (AID): AID signal (AID 1347429); details: Recombinant AID, FRET ssDNA deamination with UDG, fluorescence; at 115 µM (top of the series); further: on the % scale 0 is the no-effect control and ±100 the full control effect
In short: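 FRET deamination assay: 1 uM AID (4/3x stock) with UDG, compound up to 114 uM, then 250 nM DJC20/DJC23 substrate (4x stock) for 4 hr at room temperature. NaOH added, 30 min; fluorescence read 540/590 nm.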

[14] = target: Calcium and integrin-binding protein 1 (Homo sapiens) (UniProt Q99828); test: Validation qHTS for Identification of Calcium Integrin Binding protein 1 (CIB1) Competitor (AID 1508618); details: CIB1-GST / FITC-alphaIIb peptide fluorescence polarization; at 114 µM (top of the series); further: on the % scale 0 is the no-effect control and ±100 the full control effect
In short: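 Displacement of FITC-alphaIIb peptide (100 nM) from CIB1-GST (1 uM) is monitored by polarization in quantitative HTS format; buffer carries 5 mM CaCl2 and 125 mM NaCl at pH 7.4, incubations are at room temperature.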

[15] = target: Metallo-beta-lactamase type 2 (Klebsiella pneumoniae) (UniProt C7C422); test: qHTS to identify inhibitors of the New Delhi Metallo-beta-lactamase (NDM): assay validation screen against the NCATS LOPAC Collection (AID 1794843); details: NDM-1 enzyme, nitrocefin hydrolysis, absorbance 485 nm; at 38.4 µM (top of the series)
In short: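 Enzyme 2 nM final, 50 mM HEPES pH 7.0, 1 uM ZnSO4, 0.01% Tween20; cpds in DMSO, preincub w/ enzyme; + nitrocefin (50 uM stock); A485 at plateau; no-enzyme column as blank.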

CN(C(=O)Cc1ccc(Cl)c(Cl)c1)[C@@H]1CCCC[C@@H]1N1CCCC1
inactive: activity change, negative = inhibition [1] -4.99% | activity change, negative = inhibition [2] 5.2% | activity change, negative = inhibition [3] -20.5% | activity change, negative = inhibition [4] 0.847% | activity change, negative = inhibition [5] -0.565% | activity change, negative = inhibition [6] 3.4% | activation [7] -26.7% | activity change, negative = inhibition [8] -30.7% | activity, negative = inhibition [9] -15.4% | activity change, negative = inhibition [10] -3.5% | activity, positive = inhibition (GFP gain) [11] -0.438% | activity, negative = inhibition [12] 6.27% | activity change, negative = inhibition [13] 14.8% | activity change, negative = inhibition [14] 1.63% | activity change, negative = inhibition [15] 9.35%
